The record followed here is ChEMBL document CHEMBL3232818, “Imidazole-derived 2-[N-carbamoylmethyl-alkylamino]acetic acids, substrate-dependent modulators of insulin-degrading enzyme in amyloid-β hydrolysis” (Eur J Med Chem, 2014).

Each structure is given as a SMILES string.

Test [1] concerns the target T1, Insulin-degrading enzyme (Homo sapiens, UniProt P14735).
T1 sequence (P14735 whole entry): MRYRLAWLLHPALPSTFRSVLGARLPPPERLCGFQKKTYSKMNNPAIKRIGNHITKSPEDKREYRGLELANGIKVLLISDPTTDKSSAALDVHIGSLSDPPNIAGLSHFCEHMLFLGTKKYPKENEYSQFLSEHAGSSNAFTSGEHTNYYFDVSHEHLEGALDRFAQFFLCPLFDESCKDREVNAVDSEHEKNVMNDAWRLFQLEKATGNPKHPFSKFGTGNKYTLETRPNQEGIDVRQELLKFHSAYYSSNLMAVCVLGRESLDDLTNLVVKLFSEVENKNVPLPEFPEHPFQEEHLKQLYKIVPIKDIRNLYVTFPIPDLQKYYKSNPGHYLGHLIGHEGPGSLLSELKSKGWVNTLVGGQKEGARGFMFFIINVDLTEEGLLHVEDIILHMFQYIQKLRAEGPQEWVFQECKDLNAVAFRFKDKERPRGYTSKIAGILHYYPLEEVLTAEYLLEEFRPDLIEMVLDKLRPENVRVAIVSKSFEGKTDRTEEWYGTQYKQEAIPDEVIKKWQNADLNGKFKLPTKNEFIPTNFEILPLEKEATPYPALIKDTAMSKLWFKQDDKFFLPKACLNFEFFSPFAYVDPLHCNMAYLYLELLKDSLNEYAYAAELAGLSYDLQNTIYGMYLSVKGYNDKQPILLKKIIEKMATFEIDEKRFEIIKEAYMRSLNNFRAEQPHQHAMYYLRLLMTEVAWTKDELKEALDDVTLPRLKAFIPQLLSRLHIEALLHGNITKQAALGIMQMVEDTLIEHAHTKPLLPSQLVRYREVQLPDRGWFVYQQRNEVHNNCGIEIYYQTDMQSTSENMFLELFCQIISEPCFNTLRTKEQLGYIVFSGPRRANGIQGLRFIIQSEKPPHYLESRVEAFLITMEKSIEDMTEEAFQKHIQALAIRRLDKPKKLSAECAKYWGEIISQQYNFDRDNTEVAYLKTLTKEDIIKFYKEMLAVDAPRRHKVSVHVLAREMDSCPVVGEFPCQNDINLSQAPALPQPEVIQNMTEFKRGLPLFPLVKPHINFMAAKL
Nature of the test: Inhibition of human recombinant IDE-mediated amyloid beta (16 to 23) hydrolysis using ATTO 655-Cys-Lys-Leu-Val-Phe-Phe-Ala-Glu-Asp-Trp as substrate preincubated for 10 mins measured after 30 mins by spectrophotometer analysis.

In test [2] the target is T1, Insulin-degrading enzyme.
The target in test [3] is T1, Insulin-degrading enzyme. The source holds these as a separate data set.

Turning to `CNC(=O)[C@H](Cc1c[nH]cn1)NC(=O)CN(CCCc1ccccc1)CC(=O)O`, the IC50 was 100 nM in test [1] and 3100 nM in test [3]. Moreover, in test [2], a half-maximal response (EC50) required 530 nM.
